System: HIV-1 NL4-3
Assay: Murine SCID-hu-PBMC model of HIV-1 infection
Type: in vivo, CB.17 SCID/SCID mice
Details: one week post-infection; FIG. 5D

SMILES: CC[C@H](C)C(=O)O[C@H]1C[C@@H](C)C=C2C=C[C@H](C)[C@H](CC[C@@H]3C[C@@H](O)CC(=O)O3)[C@H]21 [lovastatin]
- Average CD4+/CD45+ ratio: 51%

Source: patent US20070082942A1, “Prevention of hiv-1 infection by inhibition of rho-mediated reorganization and/or content alteration of cell membrane raft” (priority 2003, published 2007)
